# From paper PMC6070540, “SUMO-mediated regulation of NLRP3 modulates inflammasome activity” (Nature Communications, 2018)
# Tested on: caspase-1
# Assay: Caspase-1 cleavage assay in 293T-ASC-caspase-1 cells
# Format: cell-based, human
# Conditions: transfected 293T-ASC-caspase-1 cells; p20 immunoblot
# Experimental: For caspase-1 cleavage assays 1 × 10^5 HEK293T-ASC-caspase-1 cells were plated in 24-well plates and transfected with a total of 600 ng of DNA the following day. Cells were lysed in 80 μl of DISC lysis buffer (20 mM Tris-HCL pH 7.5, 150 mM NaCl, 2 mM EDTA, 1% Triton X-100, 10% Glycerol) supplemented with 2% SDS. To shred genomic DNA cell lysates were passed through 0.8 ml columns (Pierce). Lysates were quantified using BCA protein assay kit (Pierce) and 6× SDS loading dye added. Samples were boiled for 5 min before separating by SDS-PAGE using NuPAGE Novex 4–12% Bis-Tris 1.0 mm 20 well precast midi protein gels (Life Technologies) in MES buffer. Caspase-1 p20 antibody (Bally-1, human, Adipogen) was used to detect total and cleaved caspase-1 in cell lysate.
substance,measurement,value
WT NLRP3: wild-type NLRP3 expressed by transfection,ability of NLRP3 to activate caspase-1,stimulated activation of caspase-1
